The target in the assay is novel mammalian opioid receptor (LC132, MSOR, OFQR) (Rattus norvegicus, UniProt P35370). Particulars: membranes from transient (COS-7) and stable (Ltk-) transfectants, 120 min at 22° C.

Amino acid sequences for entries named in this document (tags omitted). A change or cut given only in a name is not applied to a line headed by its entry.
UniProt P35370: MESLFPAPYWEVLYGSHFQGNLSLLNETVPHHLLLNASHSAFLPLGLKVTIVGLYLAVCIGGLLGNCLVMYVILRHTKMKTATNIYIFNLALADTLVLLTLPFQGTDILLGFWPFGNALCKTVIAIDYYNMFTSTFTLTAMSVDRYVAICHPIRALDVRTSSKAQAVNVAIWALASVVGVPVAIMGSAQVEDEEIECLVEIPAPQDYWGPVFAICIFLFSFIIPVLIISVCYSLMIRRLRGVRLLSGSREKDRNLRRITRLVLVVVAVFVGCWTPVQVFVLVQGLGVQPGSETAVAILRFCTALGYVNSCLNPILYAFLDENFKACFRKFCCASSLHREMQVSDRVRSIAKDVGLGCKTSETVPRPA

Consider `CO[C@]12CC[C@@]3(C[C@@H]1C(C)(C)O)[C@H]1Cc4ccc(O)c5c4[C@@]3(CCN1CC1CC1)[C@H]2O5`, for which the “specific binding of the radioactively-labeled ligand” value is on record as “no specific binding”.

These data come from patent US5821219A (priority 1995, dated 1998).
